Each compound was assayed against T1, JAK3: Recombinant human kinase domain (Homo sapiens, UniProt P52333) (assay: Determination of IC50 of Janus Kinase (JAK) inhibition, radioactive end-point 33P-ATP assay, JAK3). Conditions: ATP 1.5 uM, peptide 50 uM, 20 minutes, read-out: JAK3-INHIB-DR/v1~NO ADDITIVE~Enzyme_Conc = 100.
T1 construct: JAK3: Recombinant human kinase domain from Millipore (Cat #14-629) or prepared; purchased Millipore 14-629
Format: biochemical

Protein sequences, listed by entry. Tags and fused reporters are not part of them. Residues count along the entry.
UniProt P52333, 822-1111 limits assumed: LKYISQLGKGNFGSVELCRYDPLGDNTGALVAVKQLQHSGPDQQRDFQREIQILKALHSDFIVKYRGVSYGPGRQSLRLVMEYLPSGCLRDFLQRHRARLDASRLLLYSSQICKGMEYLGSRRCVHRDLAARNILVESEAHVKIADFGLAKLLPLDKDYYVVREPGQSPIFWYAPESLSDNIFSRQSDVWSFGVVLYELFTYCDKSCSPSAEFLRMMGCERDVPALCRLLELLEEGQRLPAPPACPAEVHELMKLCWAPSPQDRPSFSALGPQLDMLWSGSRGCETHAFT

IC50 | SMILES
1.12 nM | C[C@@H](NC(=O)c1c[nH]c2ncc(-c3nn(C)c4ccccc34)nc12)C(=O)N1CC(C#N)C1 [Example I-7, 2-(1-Methyl-1H-indazol-3-yl)-5H-pyrrolo[2,3-b]pyrazine-7-carboxylic acid [(R)-2-(3-cyano-azetidin-1-yl)-1-methyl-2-oxo-ethyl]-amide]
2.86 nM | C[C@@H](NC(=O)c1c[nH]c2ncc(-c3nn(C)c4cc(C5CC5)ccc34)nc12)C(=O)N1CC(C#N)C1 [Example I-17, 2-(6-Cyclopropyl-1-methyl-1H-indazol-3-yl)-5H-pyrrolo[2,3-b]pyrazine-7-carboxylic acid [(R)-2-(3-cyano-azetidin-1-yl)-1-methyl-2-oxo-ethyl]-amide]
0.4 nM | CC[C@@H](NC(=O)c1c[nH]c2ncc(-c3nn(C)c4cc(Cl)ccc34)nc12)C(=O)N1CC(C#N)C1 [Example I-20, 2-(6-Chloro-1-methyl-1H-indazol-3-yl)-5H-pyrrolo[2,3-b]pyrazine-7-carboxylic acid [(R)-1-(3-cyano-azetidine-1-carbonyl)-propyl]-amide]
0.285 nM | Cn1nc(-c2cnc3[nH]cc(C(=O)N[C@@H](C(=O)N4CC(C#N)C4)C4CC4)c3n2)c2ccc(Cl)cc21 [Example I-21, 2-(6-Chloro-1-methyl-1H-indazol-3-yl)-5H-pyrrolo[2,3-b]pyrazine-7-carboxylic acid [(R)-2-(3-cyano-azetidin-1-yl)-1-cyclopropyl-2-oxo-ethyl]-amide]
0.81 nM | C[C@@H](NC(=O)c1c[nH]c2ncc(-c3cn(C)c4cc(Cl)ccc34)nc12)C(=O)N1CC(C#N)C1 [Example I-29, 2-(6-Chloro-1-methyl-1H-indol-3-yl)-5H-pyrrolo[2,3-b]pyrazine-7-carboxylic acid [(R)-2-(3-cyano-azetidin-1-yl)-1-methyl-2-oxo-ethyl]-amide]
0.26 nM | C[C@@H](NC(=O)c1c[nH]c2ncc(-c3ncn4cc(F)ccc34)nc12)C(=O)N1CC(C#N)C1 [Example I-32, 2-(6-Fluoro-imidazo[1,5-a]pyridin-1-yl)-5H-pyrrolo[2,3-b]pyrazine-7-carboxylic acid [(R)-2-(3-cyano-azetidin-1-yl)-1-methyl-2-oxo-ethyl)-amide]
0.975 nM | C[C@@H](NC(=O)c1c[nH]c2ncc(-c3ncn4cc(F)cc(F)c34)nc12)C(=O)N1CC(C#N)C1 [Example I-33, 2-(6,8-Difluoro-imidazo[1,5-a]pyridin-1-yl)-5H-pyrrolo[2,3-b]pyrazine-7-carboxylic acid [(R)-2-(3-cyano-azetidin-1-yl)-1-methyl-2-oxo-ethyl]-amide]
0.63 nM | Cn1nc(-c2cnc3[nH]cc(C(=O)N[C@@H](C(=O)N4CC(C#N)C4)C(C)(C)C)c3n2)c2ccc(Cl)cc21 [Example I-43, 2-(6-Chloro-1-methyl-1H-indazol-3-yl)-5H-pyrrolo[2,3-b]pyrazine-7-carboxylic acid [(R)-1-(3-cyano-azetidine-1-carbonyl)-2,2-dimethyl-propyl]-amide]
4.61 nM | C[C@@H](NC(=O)c1c[nH]c2ncc(-n3ncc4cc(Cl)ccc43)nc12)C(=O)N1CC(C#N)C1 [Example I-69, 2-(5-Chloro-indazol-1-yl)-5H-pyrrolo[2,3-b]pyrazine-7-carboxylic acid [(R)-2-(3-cyano-azetidin-1-yl)-1-methyl-2-oxo-ethyl]-amide]
0.735 nM | COc1ccc2c(-c3cnc4[nH]cc(C(=O)N[C@H](C)C(=O)N5CC(C#N)C5)c4n3)nn(C)c2c1 [Example I-84, 2-(6-Methoxy-1-methyl-1H-indazol-3-yl)-5H-pyrrolo[2,3-b]pyrazine-7-carboxylic acid [(R)-2-(3-cyano-azetidin-1-yl)-1-methyl-2-oxo-ethyl]-amide]
1.12 nM | C[C@@H](NC(=O)c1c[nH]c2ncc(-c3nn(C)c4cc(Cl)cc(F)c34)nc12)C(=O)N1CC(C#N)C1 [Example I-124, 2-(6-Chloro-4-fluoro-1-methyl-1H-indazol-3-yl)-5H-pyrrolo[2,3-b]pyrazine-7-carboxylic acid [(R)-2-(3-cyano-azetidin-1-yl)-1-methyl-2-oxo-ethyl]-amide]
2.48 nM | C[C@@H](NC(=O)c1c[nH]c2ncc(-c3cnc4cc(Cl)ccn34)nc12)C(=O)N1CC(C#N)C1 [Example I-221, 2-(7-Chloro-imidazo[1,2-a]pyridin-3-yl)-5H-pyrrolo[2,3-b]pyrazine-7-carboxylic acid [(R)-2-(3-cyano-azetidin-1-yl)-1-methyl-2-oxo-ethyl]-amide]
